Reference: PubChem BioAssay AID680 (PCMD, 2007)
The list shows a part of the results, in another mix than the full data. Active and inactive are the calls of the source. Rule as the data show it: active = inhibition above about 20% (passing the limit was not always enough); inactive = the rest.

The chains behind the UniProt entries cited, without tags or fusion partners. Residues count along the entry.
UniProt P03951, 19-387 limits assumed: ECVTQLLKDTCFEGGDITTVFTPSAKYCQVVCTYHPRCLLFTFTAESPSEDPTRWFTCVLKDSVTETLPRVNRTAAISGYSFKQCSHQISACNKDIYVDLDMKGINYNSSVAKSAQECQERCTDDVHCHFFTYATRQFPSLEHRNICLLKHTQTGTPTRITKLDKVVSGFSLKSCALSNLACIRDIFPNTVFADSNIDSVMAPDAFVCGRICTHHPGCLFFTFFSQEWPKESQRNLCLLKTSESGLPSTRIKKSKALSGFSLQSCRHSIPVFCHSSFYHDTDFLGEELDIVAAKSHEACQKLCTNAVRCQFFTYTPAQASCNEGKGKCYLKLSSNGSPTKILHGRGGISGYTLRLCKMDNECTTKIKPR
UniProt P03951, 388-625 limits assumed: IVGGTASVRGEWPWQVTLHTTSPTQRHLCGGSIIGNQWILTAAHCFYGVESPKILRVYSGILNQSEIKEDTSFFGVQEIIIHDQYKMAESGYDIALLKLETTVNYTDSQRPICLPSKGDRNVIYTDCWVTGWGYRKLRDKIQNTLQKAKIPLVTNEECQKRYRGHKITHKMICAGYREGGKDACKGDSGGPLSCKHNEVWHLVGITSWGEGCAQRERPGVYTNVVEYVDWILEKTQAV

target: Coagulation factor XI (Homo sapiens) (UniProt P03951); assay: human factor XIa inhibition by mixtures – biochemical, 10-compound mixtures, primary screen (AID 680); details: purified FXIa, fluorogenic substrate, pooled mixtures; at 5 µM; stronger effect = higher value;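 also: each value is inhibition by a whole ten-compound pool holding the compound; 0% = enzyme with no mixture and 100% = wells lacking enzyme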

Structure (SMILES) | inhibition
COc1ccccc1OP(C)(=O)Nc1ccc(C)cc1 (stereo not drawn) | inactive: 6.71%
Cc1ccc(NP(C)(=O)Oc2ccccc2)c(C)c1 (stereo not drawn) | inactive: 6.73%
CCOP(C)(=S)SCC(=O)NC(C)C(=O)O (stereo not drawn) | inactive: -2.4%
CP(=O)(NC(=O)Nc1ccccc1)Oc1ccccc1 (stereo not drawn) | inactive: 10.1%
CP(=S)(Nn1cnnc1)Oc1ccccc1 (stereo not drawn) | inactive: -2.92%
Cc1nc2ccc3ccccc3c2s1.O=[N+]([O-])c1cc([N+](=O)[O-])c(O)c([N+](=O)[O-])c1 | inactive: 6.01%
Cc1ccc(C)c(NP(C)(=O)Oc2ccccc2)c1 (stereo not drawn) | inactive: 11.1%
CP(=O)(Nc1ccccc1F)Oc1ccccc1 (stereo not drawn) | inactive: 4.75%
Cc1ccccc1NP(C)(=O)Nc1ccccc1C | inactive: 1.9%
CP(=O)(Nc1ccc2c(c1)OCCO2)Oc1ccccc1 (stereo not drawn) | inactive: 1.8%
CCOP(C)(=S)SCC(=O)NC(C)(CC)C(=O)O (stereo not drawn) | inactive: 0.93%
CN(C)CCOC(=O)C(O)(c1ccccc1)C1CCCCC1 (stereo not drawn) | inactive: -2.93%
CP(=O)(Oc1ccccc1)N1CCOC1=O (stereo not drawn) | inactive: 0.1%
COc1ccccc1OP(C)(=O)Nc1c(C)n(C)n(-c2ccccc2)c1=O (stereo not drawn) | inactive: 0.525%
CCN(CC)CC(O)COC(=O)C(O)(c1ccccc1)C1CCCCC1 (stereo not drawn) | inactive: 6.03%
CP(=O)(Nc1ccccn1)Oc1ccccc1 (stereo not drawn) | inactive: 3.92%
Cc1nc2ccc3ccccc3c2o1.O=[N+]([O-])c1cc([N+](=O)[O-])c(O)c([N+](=O)[O-])c1 | inactive: 1.16%
COc1ccccc1OP(C)(=O)Nc1ccc(C)c(C)c1 (stereo not drawn) | inactive: -0.03%
